Assay results: publication PMC11200976, “Pitavastatin Calcium Confers Fungicidal Properties to Fluconazole by Inhibiting Ubiquinone Biosynthesis and Generating Reactive Oxygen Species” (Antioxidants, 2024)

Tested on: C. albicans
Assay: Broth microdilution assay of synergistic lethality with 4 μg/mL FLC (recovery on drug-free YPD)
Conditions: concentration of the compound that is synergistically lethal with 4 μg/mL FLC

SMILES | Synergistic lethal concentrations
O=C(O)C(O)C(O)C(=O)O.Oc1ccc2c(c1)CC[C@H](c1ccccc1)[C@@H]2c1ccc(OCCN2CCCC2)cc1 [Lasofoxifene (Tartrate)] | 100 µM
CCCCCCCC(=O)N[C@H](CN1CCCC1)[C@H](O)c1ccc2c(c1)OCCO2.CCCCCCCC(=O)N[C@H](CN1CCCC1)[C@H](O)c1ccc2c(c1)OCCO2.O=C(O)C(O)C(O)C(=O)O [Eliglustat (hemitartrate)] | 100 µM
CC(C)COc1ccc(CNC(=O)N(Cc2ccc(F)cc2)C2CCN(C)CC2)cc1.CC(C)COc1ccc(CNC(=O)N(Cc2ccc(F)cc2)C2CCN(C)CC2)cc1.O=C(O)C(O)C(O)C(=O)O [Pimavanserin tartrate] | 12.5 µM
CN(C)CCOc1ccc(/C(=C(/CCCl)c2ccccc2)c2ccccc2)cc1.O=C(O)CC(O)(CC(=O)O)C(=O)O [Toremifene (citrate)] | 1.5625 µM
CC(CN(C)C)CN1c2ccccc2Sc2ccccc21.CC(CN(C)C)CN1c2ccccc2Sc2ccccc21.O=C(O)C(O)C(O)C(=O)O (centres unmarked) [Alimemazine hemitartrate] | 50 µM
